A short description of series [1]: Safety and tolerability of oral Compound (I) and metformin alone or in combination in male volunteers. The note with it: Compound (I) 2 mg Q12h, M 500 mg Q12h, or the combination, each for 4 days.
Series [2] in a line: Steady-state pharmacokinetics of Compound (I) and metformin alone and in combination in male volunteers (plasma, day 4). The following applies: Combn = Compound (I) + M coadministration, oral, Compound (I) 2 mg Q12h + M 500 mg Q12h for 4 days.

For orientation: Tmax means the time at which the peak concentration occurs.

Turning to `CN(CCOc1ccc(CC2SC(=O)NC2=O)cc1)c1ccccn1` (stereo not drawn) [Compound (I), 5-[4-[2-(N-methyl-N-(2-pyridyl)amino)ethoxy]benzyl]thiazolidine-2,4-dione], in series [1], the Episodes of hypoglycaemia result is “no episodes of hypoglycaemia”. In series [2], the Tmax came to 3.5 h and the T½ worked out at 3.41 h.

Consider `CN(C)C(=N)N=C(N)N` [M, 1,1-Dimethylbiguanidine, reference compound], for which, in series [1], the Episodes of hypoglycaemia entry is “no episodes of hypoglycaemia”; the “Safety and tolerability of oral doses” value is “safe and well tolerated”. Besides, the Tmax in series [2] came to 3.5 h.
